Test results reported in patent publication US7763644B2, “Imidazole derivatives, processes for preparing them and their uses” (UCB Pharma, S.A., priority 2003, dated 2010).

The chains behind the UniProt entries cited, without tags or fusion partners.
UniProt Q02563, whole entry: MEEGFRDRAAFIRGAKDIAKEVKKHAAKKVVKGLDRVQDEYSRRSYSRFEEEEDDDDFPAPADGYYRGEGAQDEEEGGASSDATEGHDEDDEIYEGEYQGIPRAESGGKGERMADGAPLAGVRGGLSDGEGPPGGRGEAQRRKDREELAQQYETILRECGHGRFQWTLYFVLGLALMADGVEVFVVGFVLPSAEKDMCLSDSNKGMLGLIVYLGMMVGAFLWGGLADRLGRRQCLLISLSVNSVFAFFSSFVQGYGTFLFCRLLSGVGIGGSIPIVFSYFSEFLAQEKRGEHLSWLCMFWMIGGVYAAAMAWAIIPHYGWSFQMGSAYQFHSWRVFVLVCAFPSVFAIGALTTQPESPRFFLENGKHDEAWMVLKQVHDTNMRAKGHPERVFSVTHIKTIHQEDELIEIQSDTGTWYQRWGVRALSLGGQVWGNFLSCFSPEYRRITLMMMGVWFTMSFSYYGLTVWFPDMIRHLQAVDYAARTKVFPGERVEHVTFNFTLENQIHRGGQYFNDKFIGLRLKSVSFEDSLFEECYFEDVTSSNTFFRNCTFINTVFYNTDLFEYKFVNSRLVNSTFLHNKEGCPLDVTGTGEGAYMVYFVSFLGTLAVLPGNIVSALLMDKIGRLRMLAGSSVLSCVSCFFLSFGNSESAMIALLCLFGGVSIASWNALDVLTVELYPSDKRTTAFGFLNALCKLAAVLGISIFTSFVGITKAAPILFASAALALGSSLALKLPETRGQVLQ

Biological target: T1, LBS (Rattus norvegicus, UniProt Q02563)
T1 construct: from tissue; host or cells: rat brain (crude membranes)
Test: Saturation binding of [^3H]-compound 7 to crude rat brain membranes
Conditions: 4° C., 120 min, read-out: Kd of [^3H]-compound 7, saturation binding curves
Method: FIG. 1 depicts the saturation binding curves of [^3H]-compound 7 with rat brain membranes. Y-axis represents bound to free radioligand ratio: B/F (fmol/assay/nM) and X-axis represents bound radioligand: B (fmol/assay).
This example describes the binding properties of [^3H]-compound 7. Binding experiments were conducted on crude rat brain membranes at 4° C. as described in Noyer M. et al. (Euro. J. Pharmacol. (1995), 286, 137-146). Incubation time for equilibrium studies was 120 min. [^3H]-compound 7 (25 Ci/mmol) was used at a concentration of 0.4 nM in 0.5 ml of a Tris-HCl (pH 7.4) buffer containing 2 mM Mg^2+. […] The Bmax being similar to the value estimated using [^3H]-L059 as radioligand in similar membrane preparations (5 pmol/mg protein). […] The pKi of compound 7 (7.5) agrees well with the KD of [^3H]-compound 7 as determined by the saturation binding curve (FIG. 2).

## [^3H]-(+)-4-(3-azido-2,4-difluorophenyl)-1-(1H-imidazol-1-ylmethyl)pyrrolidin-2-one [[^3H]-compound 7]
  Kd: 13 nM
